## Curated experimental data: properties

The melting point is given in degrees Celsius. The boiling point refers to atmospheric pressure (760 mmHg), by the definition of the set. The octanol-water partition coefficient is given as log10; larger values mean a more lipophilic compound. Water solubility is log10 of mol/L, nominally at 25 °C; higher is more soluble. Vapor pressure is log10 of mmHg; the set covers 15 to 30 °C, mostly 20 to 25 °C. The Henry's law constant is on a log10 scale in atm·m3/mol (set defined at 25 °C); higher favours air over water. The unbound fraction in human plasma runs from 0 (all bound) to 1 (all free). Clint is human hepatic intrinsic clearance in µL/min per million cells; 0 means that no clearance was seen.

CNC(=O)Oc1cccc2c1OC(C)(C)C2O (stereo not given) is reported with log S -1.58 (log10 mol/L) and log VP -6.298 (log10 mmHg) and log H -8.298 (log10 atm·m3/mol). CC(=NNC(=O)Nc1cc(F)cc(F)c1)c1ncccc1C(=O)O is reported with log Kow 1.09 and log VP -4.886 (log10 mmHg) and log H -9.161 (log10 atm·m3/mol). Listed for Sc1ccccc1Cl: log Kow 1.96 and log S -2.021 (log10 mol/L) and log VP -0.216 (log10 mmHg). The entry for COc1cc(OC)nc(NC(=O)NS(=O)(=O)c2ncccc2C(F)(F)F)n1 lists log Kow 1.08 and log S -2.29 (log10 mol/L) and log VP -7.001 (log10 mmHg) and log H -10.59 (log10 atm·m3/mol). COP(=O)(OC)SCn1c(=O)oc2cc(Cl)cnc21 has log S -2.47 (log10 mol/L) and log H -10.84 (log10 atm·m3/mol) and plasma fu 0.553 and intrinsic clearance 429 µL/min/10^6 cells. Listed for Brc1ccc(Oc2ccc(Br)cc2)cc1: log Kow 5.67 and log S -6.293 (log10 mol/L) and log VP -4.128 (log10 mmHg). CCSCCOP(=S)(OC)OC has log S -2.839 (log10 mol/L) and log VP -3.727 (log10 mmHg). For ClC(Cl)=C(Cl)Cl the data give plasma fu 0.2463 and intrinsic clearance 0.0109 µL/min/10^6 cells.

The entry for CN1COCN=C1N[N+](=O)[O-] lists log Kow -0.35 and log VP -6.736 (log10 mmHg). For C(=NC1CCCCC1)=NC1CCCCC1 the data give log S -5.562 (log10 mol/L) and log VP -1.953 (log10 mmHg). For CC(=O)Nc1c2sscc-2n(C)c1=O the data give mp 274.5 °C and log S -3.036 (log10 mol/L). Listed for CCC(C)(C)OOC1(OC)CCCCC1: log Kow 4.04 and log S -3.686 (log10 mol/L) and log VP -1.824 (log10 mmHg). Listed for CCCCC(CC)COC(=O)c1ccc(C(=O)OCC(CC)CCCC)c(C(=O)OCC(CC)CCCC)c1 (stereo not given): mp -46 °C and log Kow 5.94 and log VP -9.477 (log10 mmHg). CCOP(=S)(OCC)SCn1c(=O)oc2ccccc21 has mp 43 °C and log S -5.19 (log10 mol/L). O=P(Oc1ccccc1)(Oc1ccccc1)Oc1ccccc1 is reported with plasma fu 0.002852 and intrinsic clearance 26.44 µL/min/10^6 cells. The entry for O=P([O-])([O-])c1ccccc1.[Zn+2] lists log S -4.459 (log10 mol/L) and log VP -8.727 (log10 mmHg).

Listed for Nc1ccc(Cl)cc1N: plasma fu 0.373 and intrinsic clearance 31.6 µL/min/10^6 cells. COc1ccc(C(C)(C)C)cc1CN[C@H]1C2CCN(CC2)[C@H]1C(c1ccccc1)c1ccccc1 is reported with mp 131.9 °C and log S -4.686 (log10 mol/L) and log VP -9.02 (log10 mmHg). For CC(C)N(C(=O)COc1nnc(C(F)(F)F)s1)c1ccc(F)cc1 the data give plasma fu 0.1376 and intrinsic clearance 29 µL/min/10^6 cells. The entry for Clc1ccc2c(c1)Oc1ccc(Cl)cc1O2 lists mp 209 °C and log S -7.83 (log10 mol/L) and log VP -6.046 (log10 mmHg). Cc1ccccc1 has plasma fu 0.3 and intrinsic clearance 3.499 µL/min/10^6 cells. CC(C)=CC1C(C(=O)OC(C#N)c2cccc(Oc3ccccc3)c2)C1(C)C (stereo not given) is reported with log Kow 6.29 and log S -7.57 (log10 mol/L) and log VP -6.046 (log10 mmHg). C#CCN1C(=O)COc2cc(F)c(N3C(=O)C4=C(CCCC4)C3=O)cc21 is reported with plasma fu 0.02835 and intrinsic clearance 8.34 µL/min/10^6 cells. For CCCCCCCCCCCCOP(=S)([S-])OCCCCCCCCCCCC.CCCCCCCCCCCCOP(=S)([S-])OCCCCCCCCCCCC.[Zn+2] the data give mp -17 °C and log S -3.853 (log10 mol/L).

C#CC1(O)CCC2C3C(C)CC4=CC(=O)CCC4C3CCC21C (stereo not given) is reported with log Kow 3.15 and log S -4.64 (log10 mol/L) and log VP -9.186 (log10 mmHg). For C=CCCC(=O)Cl the data give mp -22.45 °C and log VP 1.009 (log10 mmHg) and log H -6.02 (log10 atm·m3/mol). The entry for Cc1cc(O)ccc1Cl lists plasma fu 0.0723 and intrinsic clearance 0 µL/min/10^6 cells. The entry for CC(C)(C)C(=O)O[C@H]1CC[C@@]2(C)C(=C[C@H](O)[C@H]3[C@@H]4[C@@H](OC(=O)C(C)(C)C)CC(=O)[C@@]4(C)CC[C@@H]32)C1 lists log Kow 5.57 and log S -5.212 (log10 mol/L). The entry for CC(=O)NC(=O)CCl lists mp 114 °C and log S -1.509 (log10 mol/L). Listed for CCC12COCN1COC2: mp -0.1 °C and bp 189.6 °C and log Kow -0.705 and log VP 0.095 (log10 mmHg). Listed for N#Cc1ccc(N)cc1: log Kow 1 and log VP -4.643 (log10 mmHg). The entry for COc1nc(C)nc(NC(=O)NS(=O)(=O)c2ccccc2CCC(F)(F)F)n1 lists mp 155 °C and log S -3.09 (log10 mol/L) and log VP -7.58 (log10 mmHg) and log H -8.529 (log10 atm·m3/mol) and intrinsic clearance 10.37 µL/min/10^6 cells.

Listed for CCN(CCCl)c1ccc(C=O)cc1: mp -48 °C and log Kow 2.51 and log S -3.033 (log10 mol/L) and log VP -5.156 (log10 mmHg). Cl.Fc1ccc2c(C3CCNCC3)noc2c1 is reported with log Kow -0.345 and log VP -4.696 (log10 mmHg).

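OPERA's authors assembled the values from existing databases and did not measure them anew. A listed value is a point estimate from one report or more. How each value was measured is not recorded, so precision varies. The measured form (salt, isomer or mixture) is not always the one drawn. Some upstream entries may be estimates or bounds without being marked so.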

Values as listed in the OPERA 2.9 repository of K. Mansouri.